Source: patent US6936585B2, “Corticotropin releasing factor 2 receptor agonists” (priority 2002, dated 2005)

Columns and labels:
CRF2R = target: T1, CRF2R (Homo sapiens, UniProt Q13324); experiment: CRF2R agonist activation (EC50 / Emax), called comparative CRF binding; format: cell-based; details: for Emax: read-out: CRF2R Emax
T1 sequence (Q13324 1-411): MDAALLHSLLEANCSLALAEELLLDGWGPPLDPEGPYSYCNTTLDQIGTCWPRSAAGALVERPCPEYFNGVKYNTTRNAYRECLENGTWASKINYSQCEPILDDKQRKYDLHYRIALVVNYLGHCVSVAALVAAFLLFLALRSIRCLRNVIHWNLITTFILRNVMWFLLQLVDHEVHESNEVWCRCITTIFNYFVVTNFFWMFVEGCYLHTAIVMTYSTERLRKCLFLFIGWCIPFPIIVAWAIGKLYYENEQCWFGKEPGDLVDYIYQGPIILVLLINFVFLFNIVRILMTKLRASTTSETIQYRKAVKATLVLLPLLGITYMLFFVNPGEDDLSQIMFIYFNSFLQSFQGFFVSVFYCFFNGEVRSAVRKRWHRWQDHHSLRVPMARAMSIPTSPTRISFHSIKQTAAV
Outline: (§1)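 Agonism is scored from cAMP rise, assayed in lysates or through CRE-driven reporter expression, after peptide contact with cells bearing human CRF2R or CRF1R, compared against vehicle-treated cells.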

CRF1R = target: T2, CRF1R (Homo sapiens, UniProt P34998); experiment: CRF1R agonist activation (EC50 / Emax), called comparative CRF binding; format: cell-based; details: for Emax: read-out: CRF1R Emax
T2 sequence (P34998 24-415): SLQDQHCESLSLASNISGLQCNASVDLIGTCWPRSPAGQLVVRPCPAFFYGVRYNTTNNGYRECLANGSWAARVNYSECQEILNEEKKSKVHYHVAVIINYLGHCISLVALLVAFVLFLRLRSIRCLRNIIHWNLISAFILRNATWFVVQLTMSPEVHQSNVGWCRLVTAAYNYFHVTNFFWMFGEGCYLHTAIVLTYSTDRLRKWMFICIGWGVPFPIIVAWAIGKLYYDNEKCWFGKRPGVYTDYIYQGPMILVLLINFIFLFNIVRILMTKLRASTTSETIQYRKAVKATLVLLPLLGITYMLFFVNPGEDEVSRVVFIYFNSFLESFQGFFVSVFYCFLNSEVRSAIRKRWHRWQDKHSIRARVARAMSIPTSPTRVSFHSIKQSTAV
Outline: as §1

Compound	Emax (CRF2R)	Emax (CRF1R)	EC50 (CRF2R)	EC50 (CRF1R; CRF1R EC50)
CC[C@H](C)[C@H](NC(=O)[C@@H](NC(=O)[C@H](CC(=O)O)NC(=O)[C@H](CC(C)C)NC(=O)[C@H](CC(C)C)NC(=O)[C@H](CC(C)C)NC(=O)[C@H](CCCNC(=N)N)NC(=O)[C@H](CC(N)=O)NC(=O)[C@H](CC(N)=O)NC(=O)[C@H](C)NC(=O)[C@H](C)NC(=O)[C@H](CCC(N)=O)NC(=O)[C@H](CCC(N)=O)NC(=O)[C@H](CCCCN)NC(=O)[C@H](CCC(=O)O)NC(=O)[C@H](CCCCN)NC(=O)[C@H](CCC(=O)O)NC(=O)[C@H](CCC(N)=O)NC(=O)[C@H](CCCCN)NC(=O)[C@H](CCC(=O)O)NC(=O)[C@@H](NC(=O)[C@H](CCC(=O)O)NC(=O)[C@@H](NC(=O)[C@H](CCSC)NC(=O)[C@H](CCCCN)NC(=O)[C@H](CCCNC(=N)N)NC(=O)[C@H](CC(C)C)NC(=O)[C@H](CC(C)C)NC(=O)[C@H](CCC(N)=O)NC(=O)[C@H](CC(C)C)NC(=O)[C@@H]1CCCN1C(=O)[C@H](CC(C)C)NC(=O)[C@H](CC(=O)O)NC(=O)[C@@H](NC(=O)[C@H](CO)NC(=O)[C@@H](NC(=O)[C@@H]1CCCN1C(=O)[C@@H]1CCCN1C(=O)CNC(=O)[C@@H]1CCC(=O)N1)[C@@H](C)CC)[C@@H](C)CC)[C@@H](C)CC)[C@@H](C)CC)[C@@H](C)O)C(N)=O [compound 80]	88%	55%	–	–
CC[C@H](C)[C@H](NC(=O)[C@H](CCCNC(=N)N)NC(=O)[C@H](C)NC(=O)[C@H](CC(N)=O)NC(=O)[C@@H](NC(=O)[C@@H](NC(=O)[C@H](C)NC(=O)[C@H](CCC(N)=O)NC(=O)[C@H](CCC(N)=O)NC(=O)[C@H](CCCCN)NC(=O)[C@H](CCC(=O)O)NC(=O)[C@H](CCCCN)NC(=O)[C@H](CCC(=O)O)NC(=O)[C@H](CCC(N)=O)NC(=O)[C@H](CCCCN)NC(=O)[C@H](CCC(=O)O)NC(=O)[C@@H](NC(=O)[C@H](CCC(=O)O)NC(=O)[C@@H](NC(=O)[C@H](CCSC)NC(=O)[C@H](CCCCN)NC(=O)[C@H](CCCNC(=N)N)NC(=O)[C@H](CC(C)C)NC(=O)[C@H](CC(C)C)NC(=O)[C@H](CCC(N)=O)NC(=O)[C@H](Cc1ccccc1)NC(=O)[C@@H]1CCCN1C(=O)[C@@H](NC(=O)[C@H](CC(=O)O)NC(=O)[C@@H](NC(=O)[C@H](CO)NC(=O)[C@@H](NC(=O)[C@@H]1CCCN1C(=O)[C@@H]1CCCN1C(=O)CNC(=O)[C@@H]1CCC(=O)N1)[C@@H](C)CC)[C@@H](C)CC)C(C)C)[C@@H](C)CC)[C@@H](C)CC)[C@@H](C)O)[C@@H](C)O)C(=O)N[C@@H](CC(C)C)C(=O)N[C@@H](C)C(=O)N[C@@H](CCCNC(=N)N)C(=O)N[C@H](C(N)=O)C(C)C [compound 172]	100%	68%	–	–
CC[C@H](C)[C@H](NC(=O)[C@@H](NC(=O)[C@H](CC(=O)O)NC(=O)[C@H](CC(C)C)NC(=O)[C@H](CC(C)C)NC(=O)[C@H](CC(C)C)NC(=O)[C@H](C)NC(=O)[C@H](CC(N)=O)NC(=O)[C@H](CC(N)=O)NC(=O)[C@H](C)NC(=O)[C@H](C)NC(=O)[C@H](CCC(N)=O)NC(=O)[C@H](CCC(N)=O)NC(=O)[C@H](CCCCN)NC(=O)[C@H](CCC(=O)O)NC(=O)[C@H](CCCCN)NC(=O)[C@H](CCC(=O)O)NC(=O)[C@H](CCC(N)=O)NC(=O)[C@H](CCCCN)NC(=O)[C@H](CCC(=O)O)NC(=O)[C@@H](NC(=O)[C@H](CCC(=O)O)NC(=O)[C@@H](NC(=O)[C@@H](NC(=O)[C@H](CCCCN)NC(=O)[C@H](CCCNC(=N)N)NC(=O)[C@H](CC(C)C)NC(=O)[C@H](CC(C)C)NC(=O)[C@H](Cc1ccccc1)NC(=O)[C@H](Cc1ccccc1)NC(=O)[C@@H]1CCCN1C(=O)[C@H](CC(C)C)NC(=O)[C@H](CC(=O)O)NC(=O)[C@@H](NC(=O)[C@H](CO)NC(=O)[C@@H](NC(=O)[C@@H]1CCCN1C(=O)[C@@H]1CCCN1C(=O)CNC(=O)[C@@H]1CCC(=O)N1)[C@@H](C)CC)[C@@H](C)CC)C(C)C)[C@@H](C)CC)[C@@H](C)CC)[C@@H](C)O)C(N)=O [compound 316]	94.5%	92.3%	–	–
CC[C@H](C)[C@H](NC(=O)[C@@H](NC(=O)[C@H](CC(=O)O)NC(=O)[C@H](CC(C)C)NC(=O)[C@H](CC(C)C)NC(=O)[C@H](CC(C)C)NC(=O)[C@H](CCCNC(=N)N)NC(=O)[C@H](CC(N)=O)NC(=O)[C@H](CC(N)=O)NC(=O)[C@H](C)NC(=O)[C@H](C)NC(=O)[C@H](CCC(N)=O)NC(=O)[C@H](CCC(N)=O)NC(=O)[C@H](CCCCN)NC(=O)[C@H](CCC(=O)O)NC(=O)[C@H](CCCCN)NC(=O)[C@H](CCC(=O)O)NC(=O)[C@H](CCC(N)=O)NC(=O)[C@H](CCCCN)NC(=O)[C@H](CCC(=O)O)NC(=O)[C@@H](NC(=O)[C@H](CCC(=O)O)NC(=O)[C@@H](NC(=O)[C@H](CCSC)NC(=O)[C@H](CCCCN)NC(=O)[C@H](CCCNC(=N)N)NC(=O)[C@H](CC(C)C)NC(=O)[C@H](CC(C)C)NC(=O)[C@H](Cc1c[nH]cn1)NC(=O)[C@H](CC(C)C)NC(=O)[C@@H]1CCCN1C(=O)[C@H](CC(C)C)NC(=O)[C@H](CC(=O)O)NC(=O)[C@@H](NC(=O)[C@H](CO)NC(=O)[C@@H](NC(=O)[C@@H]1CCCN1C(=O)[C@@H]1CCCN1C(=O)CNC(=O)[C@@H]1CCC(=O)N1)[C@@H](C)CC)[C@@H](C)CC)[C@@H](C)CC)[C@@H](C)CC)[C@@H](C)O)C(N)=O [compound 83]	81%	96%	1.91 nM	52.2 nM
CC[C@H](C)[C@H](NC(=O)[C@@H](NC(=O)[C@H](CC(=O)O)NC(=O)[C@H](CC(C)C)NC(=O)[C@H](CC(C)C)NC(=O)[C@H](CC(C)C)NC(=O)[C@H](CCCNC(=N)N)NC(=O)[C@H](CC(N)=O)NC(=O)[C@H](CC(N)=O)NC(=O)[C@H](C)NC(=O)[C@H](C)NC(=O)[C@H](CCC(N)=O)NC(=O)[C@H](CCC(N)=O)NC(=O)[C@H](CCCCN)NC(=O)[C@H](CCC(=O)O)NC(=O)[C@H](CCCCN)NC(=O)[C@H](CCC(=O)O)NC(=O)[C@H](CCC(N)=O)NC(=O)[C@H](CCCCN)NC(=O)[C@H](CCC(=O)O)NC(=O)[C@@H](NC(=O)[C@H](CCC(=O)O)NC(=O)[C@@H](NC(=O)[C@@H](NC(=O)[C@H](CCCCN)NC(=O)[C@H](CCCNC(=N)N)NC(=O)[C@H](CC(C)C)NC(=O)[C@H](CC(C)C)NC(=O)[C@@H](NC(=O)[C@H](CCC(N)=O)NC(=O)[C@@H]1CCCN1C(=O)[C@H](CC(C)C)NC(=O)[C@H](CC(=O)O)NC(=O)[C@@H](NC(=O)[C@H](CO)NC(=O)[C@@H](NC(=O)[C@@H]1CCCN1C(=O)[C@@H]1CCCN1C(=O)CNC(=O)[C@@H]1CCC(=O)N1)[C@@H](C)CC)[C@@H](C)CC)[C@@H](C)CC)C(C)C)[C@@H](C)CC)[C@@H](C)CC)[C@@H](C)O)C(N)=O [compound 293]	87%	95.3%	–	–
